In brackets after ≈: the same amount, converted by molar mass.
How the values were obtained:
Staphylococcus aureus [1] = test: Antibacterial activity against Staphylococcus aureus ATCC 29213 by CLSI protocol based assay; assay type: functional
Staphylococcus aureus [2] = test: Antibacterial activity against Staphylococcus aureus in presence of 50% serum; assay type: functional
Staphylococcus aureus [3] = test: Antibacterial activity against Staphylococcus aureus in presence of 50% plasma; assay type: functional
Staphylococcus aureus [4] = test: Antibacterial activity against Staphylococcus aureus measured after 3 hrs in presence of 50% plasma; assay type: functional
[5] = Hemolytic activity in sheep RBC; assay type: toxicity, cell-based, Ovis aries, Erythrocyte; conditions: sheep red blood cells (erythrocytes)
Staphylococcus aureus [6] = test: Antibacterial activity against Staphylococcus aureus measured after 6 hrs in presence of 50% plasma; assay type: functional
Escherichia coli = test: Antibacterial activity against Escherichia coli ATCC 25922 by CLSI protocol based assay; assay type: functional

CC[C@H](C)[C@H](NC(=O)CN)C(=O)NCC(=O)N[C@@H](C)C(=O)N[C@H](C(=O)N[C@@H](CC(C)C)C(=O)N[C@@H](CCCCN)C(=O)N[C@H](C(=O)N[C@@H](CC(C)C)C(=O)N[C@H](C(=O)N[C@H](C(=O)NCC(=O)N[C@@H](CC(C)C)C(=O)N1CCC[C@H]1C(=O)N[C@@H](C)C(=O)N[C@@H](CC(C)C)C(=O)N[C@H](C(=O)N[C@@H](CO)C(=O)N[C@@H](Cc1c[nH]c2ccccc12)C(=O)N[C@H](C(=O)N[C@@H](CCCCN)C(=O)N[C@@H](CCCNC(=N)N)C(=O)N[C@@H](CCCCN)C(=O)N[C@@H](CCCNC(=N)N)C(=O)N[C@@H](CCC(N)=O)C(=O)N[C@@H](CCC(N)=O)C(N)=O)[C@@H](C)CC)[C@@H](C)CC)[C@@H](C)O)[C@@H](C)O)C(C)C)C(C)C [MELITTIN]
MIC (Staphylococcus aureus [1]): 4 µg/mL (≈ 1.41 µM) | MIC (Staphylococcus aureus [2]): > 128 µg/mL | MIC (Staphylococcus aureus [3]): > 128 µg/mL | MIC (Staphylococcus aureus [4]): > 128 µg/mL | HC50 [5]: 4 µg/mL | MIC (Staphylococcus aureus [6]): > 128 µg/mL | MIC (Escherichia coli): 4 µg/mL (≈ 1.41 µM)
